Laboratory results from patent publication US9718803B2 (AMGEN INC., priority 2010, dated 2017).

These compounds were tested against PDE10 enzyme (assay: MPDE10A7 enzyme activity and inhibition (IMAP TR-FRET assay)). Settings: PDE10; Table 22A.
Format: biochemical

IC50 [nM]	Structure (SMILES)
17.8	Cc1ccccc1-c1nccnc1C1CN(c2ncc3ccccc3n2)C1 [Example 10.4, 2-(3-(3-(o-tolyl)pyrazin-2-yl)azetidin-1-yl)quinazoline]
30.9	Clc1ccccc1-c1nccnc1C1CN(c2ncc3ccccc3n2)C1 [Example 10.3, 2-(3-(3-(2-chlorophenyl)pyrazin-2-yl)azetidin-1-yl)quinazoline]

Same assay, conditions: PDE10; Table 24A

IC50 [nM]	Structure (SMILES)
31.9	Cc1cccc(-c2nccnc2C2CN(c3nc4ccccc4s3)C2)c1 [Example 17.4, 2-[3-(3-m-Tolyl-pyrazin-2-yl)-azetidin-1-yl]-benzothiazole]
12	Cc1cccc(-c2nccnc2C2CN(c3ncc4ccccc4n3)C2)c1 [Example 17.2, 2-[3-(3-m-Tolyl-pyrazin-2-yl)-azetidin-1-yl]-quinazoline]

Same assay, conditions: PDE10; Table 25A

IC50 [nM]	Structure (SMILES)
6.09	Cc1cccc(-c2cccnc2C2CN(c3ccc4ccccc4n3)C2)c1 [Example 18.2, 2-[3-(3-m-Tolyl-pyridin-2-yl)-azetidin-1-yl]-quinoline]

Same assay, conditions: PDE10; Table 32A

IC50 [nM]	Structure (SMILES)
217	Cc1cccc(N2CC(c3nccnc3N3CCC(CO)CC3)C2)n1 [Example 28.7, (1-{3-[1-(6-Methyl-pyridin-2-yl)-azetidin-3-yl]-pyrazin-2-yl}-piperidin-4-yl)-methanol]

Same assay, conditions: PDE10; Table 33A

IC50 [nM]	Structure (SMILES)
4300	COc1cccc(-c2nccnc2C2CN(c3nccc(-c4ccccc4)n3)C2)c1 [Example 29.9, 2-(3-(3-(3-methoxyphenyl)pyrazin-2-yl)azetidin-1-yl)-4-phenylpyrimidine]

Same assay, conditions: PDE10 IC50, Table 13A; fluorescein labeled cAMP or cGMP substrate

IC50 [nM]	Structure (SMILES)
2030	Cc1ccc(C(=O)N2CC(c3nccnc3-c3ccccc3)C2)nc1 [Example 1.14, (5-methylpyridin-2-yl)(3-(3-phenylpyrazin-2-yl)azetidin-1-yl)methanone]

Same assay, conditions: PDE10 IC50, Table 14A; fluorescein labeled cAMP or cGMP substrate

IC50 [nM]	Structure (SMILES)
181	Cn1c(C(=O)N2CC(c3nccnc3-c3ccccc3)C2)nc2ccccc21 [Example 2.1, (1-Methyl-1H-benzoimidazol-2-yl)-[3-(3-phenyl-pyrazin-2-yl)-azetidin-1-yl]-methanone]
39.8	O=C(c1nc2ccccc2[nH]1)N1CC(c2nccnc2-c2ccc(CO)cc2)C1 [Example 2.20, (1H-Benzoimidazol-2-yl)-{3-[3-(4-hydroxymethyl-phenyl)-pyrazin-2-yl]-azetidin-1-yl}-methanone]
640	COc1cncc(-c2nccnc2C2CN(C(=O)c3nc4ccccc4[nH]3)C2)c1 [Example 2.12, (1H-Benzoimidazol-2-yl)-{3-[3-(5-methoxy-pyridin-3-yl)-pyrazin-2-yl]-azetidin-1-yl}-methanone]
226	N#Cc1cccc(-c2nccnc2C2CN(C(=O)c3nc4ccccc4[nH]3)C2)c1 [Example 2.30, 3-(3-(1-(1H-benzo[d]imidazole-2-carbonyl)azetidin-3-yl)pyrazin-2-yl)benzonitrile]

Same assay, conditions: PDE10 IC50, Table 15A; fluorescein labeled cAMP or cGMP substrate

IC50 [nM]	Structure (SMILES)
192	CC(=O)N1CCN(c2nccnc2C2CN(C(=O)c3nc4ccccc4[nH]3)C2)CC1 [Example 3.47, 1-(4-(3-(1-(1H-benzo[d]imidazole-2-carbonyl)azetidin-3-yl)pyrazin-2-yl)piperazin-1-yl)ethanone]
58.6	COCCNc1nccnc1C1CN(C(=O)c2nc3ccccc3[nH]2)C1 [Example 3.26, (1H-benzo[d]imidazol-2-yl)(3-(3-((2-methoxyethyl)amino)pyrazin-2-yl)azetidin-1-yl)methanone]
36.3	O=C(c1nc2ccccc2[nH]1)N1CC(c2nccnc2NC2CCCC2)C1 [Example 3.22, (1H-Benzoimidazol-2-yl)-[3-(3-cyclopentylamino-pyrazin-2-yl)-azetidin-1-yl]-methanone]
62.7	O=C(c1nc2ccccc2[nH]1)N1CC(c2nccnc2N2CCCOCC2)C1 [Example 3.36, (1H-Benzoimidazol-2-yl)-[3-(3-[1,4]oxazepan-4-yl-pyrazin-2-yl)-azetidin-1-yl]-methanone]
66.5	O=C(c1nc2ccccc2[nH]1)N1CC(c2nccnc2N2CCC(CO)C2)C1 (stereo not shown) [Example 3.40, (R & S)-(1H-Benzoimidazol-2-yl)-{3-[3-(3-hydroxymethyl-pyrrolidin-1-yl)-pyrazin-2-yl]-azetidin-1-yl}-methanone]
20.6	O=C(c1nc2ccccc2[nH]1)N1CC(c2nccnc2N2CCCC(CO)C2)C1 (stereo not shown) [Example 3.28, (R & S)-(1H-Benzoimidazol-2-yl)-{3-[3-(3-hydroxymethyl-piperidin-1-yl)-pyrazin-2-yl]-azetidin-1-yl}-methanone]
23.3	O=C(c1nc2ccccc2[nH]1)N1CC(c2nccnc2N2CCC(O)CC2)C1 [Example 3.51, (1H-benzo[d]imidazol-2-yl)(3-(3-(4-hydroxypiperidin-1-yl)pyrazin-2-yl)azetidin-1-yl)methanone]

Same assay, conditions: Table 16A, Examples 4.1 to 4.45; PDE10 inhibition

IC50 [nM]	Structure (SMILES)
0.0072	Cc1cc(Cl)cc(-c2nccnc2C2CN(c3ccc4ccccc4n3)C2)c1 [Example 4.37, 2-(3-(3-(3-chloro-5-methylphenyl)pyrazin-2-yl)azetidin-1-yl)quinoline]
0.0023	Oc1ccc(-c2nccnc2C2CN(c3ccc4ccccc4n3)C2)cc1Cl [Example 4.23, 2-chloro-4-(3-(1-(quinolin-2-yl)azetidin-3-yl)pyrazin-2-yl)phenol]
0.0123	Fc1cncc(-c2nccnc2C2CN(c3ccc4ccccc4n3)C2)c1 [Example 4.7, 2-(3-(3-(5-fluoropyridin-3-yl)pyrazin-2-yl)azetidin-1-yl)quinoline]
0.00234	COc1ncccc1-c1nccnc1C1CN(c2ccc3ccccc3n2)C1 [Example 4.1, 2-(3-(3-(2-methoxypyridin-3-yl)pyrazin-2-yl)azetidin-1-yl)quinoline]
0.0099	Fc1ccc(-c2nccnc2C2CN(c3ccc4ccccc4n3)C2)cc1F [Example 4.33, 2-(3-(3-(3,4-difluorophenyl)pyrazin-2-yl)azetidin-1-yl)quinoline]
0.0042	Cc1ccc(-c2nccnc2C2CN(c3ccc4ccccc4n3)C2)cc1F [Example 4.22, 2-(3-(3-(3-fluoro-4-methylphenyl)pyrazin-2-yl)azetidin-1-yl)quinoline]
0.0012	COc1cccc(-c2nccnc2C2CN(c3ccc4ccccc4n3)C2)n1 [Example 4.14, 2-(3-(3-(6-methoxypyridin-2-yl)pyrazin-2-yl)azetidin-1-yl)quinoline]
0.0106	CCOc1ccc(-c2nccnc2C2CN(c3ccc4ccccc4n3)C2)cc1Cl [Example 4.26, 2-(3-(3-(3-chloro-4-ethoxyphenyl)pyrazin-2-yl)azetidin-1-yl)quinoline]

Same assay, conditions: Table 17A, Examples 5.1 to 5.43; PDE10 inhibition

IC50 [nM]	Structure (SMILES)
9.95	CCCc1ccc(-c2nccnc2C2CN(c3ccc4ccccc4n3)C2)cc1 [Example 5.36, 2-(3-(3-(4-propylphenyl)pyrazin-2-yl)azetidin-1-yl)quinoline]
17	CN(C)S(=O)(=O)c1cccc(-c2nccnc2C2CN(c3ccc4ccccc4n3)C2)c1 [Example 5.33, N,N-dimethyl-3-(3-(1-(quinolin-2-yl)azetidin-3-yl)pyrazin-2-yl)benzenesulfonamide]
18	CN(C)C(=O)c1cccc(-c2nccnc2C2CN(c3ccc4ccccc4n3)C2)c1 [Example 5.24, N,N-dimethyl-3-(3-(1-(quinolin-2-yl)azetidin-3-yl)pyrazin-2-yl)benzamide]
0.2	COC(=O)c1cccc(-c2nccnc2C2CN(c3ccc4ccccc4n3)C2)c1 [Example 5.9, methyl 3-(3-(1-(quinolin-2-yl)azetidin-3-yl)pyrazin-2-yl)benzoate]
13.4	FC(F)(F)c1cccc(-c2nccnc2C2CN(c3ccc4ccccc4n3)C2)c1 [Example 5.26, 2-(3-(3-(3-(trifluoromethyl)phenyl)pyrazin-2-yl)azetidin-1-yl)quinoline]

Same assay, conditions: Table 18A, Examples 6.1 to 6.60; PDE10 inhibition

IC50 [nM]	Structure (SMILES)
27	FC1(F)CN(c2nccnc2C2CN(c3ccc4ccccc4n3)C2)C1 [Example 6.46, 2-(3-(3-(3,3-difluoroazetidin-1-yl)pyrazin-2-yl)azetidin-1-yl)quinoline]
14.7	c1ccc2nc(N3CC(c4nccnc4N4CCOCC4)C3)ccc2c1 [Example 6.43, 4-(3-(1-(quinolin-2-yl)azetidin-3-yl)pyrazin-2-yl)morpholine]
6.66	COCC1CCN(c2nccnc2C2CN(c3ccc4ccccc4n3)C2)C1 (stereo not shown) [Example 6.39, (R- & S-)-2-(3-(3-(3-(methoxymethyl)pyrrolidin-1-yl)pyrazin-2-yl)azetidin-1-yl)quinoline]
5.6	CC(C)(C)OC(=O)NC1CN(c2nccnc2C2CN(c3ccc4ccccc4n3)C2)C1 [Example 6.50, tert-butyl (1-(3-(1-(quinolin-2-yl)azetidin-3-yl)pyrazin-2-yl)azetidin-3-yl)carbamate]
20	Cc1cnn(-c2nccnc2C2CN(c3ccc4ccccc4n3)C2)c1 [Example 6.49, 2-(3-(3-(4-methyl-1H-pyrazol-1-yl)pyrazin-2-yl)azetidin-1-yl)quinoline]
5	c1ccc(CC2CCN(c3nccnc3C3CN(c4ccc5ccccc5n4)C3)C2)cc1 (stereo not shown) [Example 6.3, (R- & S-)-2-(3-(3-(3-benzylpyrrolidin-1-yl)pyrazin-2-yl)azetidin-1-yl)quinoline]
23	F[C@H]1CCN(c2nccnc2C2CN(c3ccc4ccccc4n3)C2)C1 [Example 6.20, (S)-2-(3-(3-(3-fluoropyrrolidin-1-yl)pyrazin-2-yl)azetidin-1-yl)quinoline]
5	Cc1cn(-c2nccnc2C2CN(c3ccc4ccccc4n3)C2)cn1 [Example 6.52, 2-(3-(3-(4-methyl-1H-imidazol-1-yl)pyrazin-2-yl)azetidin-1-yl)quinoline]
